Rows were chosen to be rich in hits. Some 13% of all compounds tested hit in one or more screens of this group.
miR-21 reporter – miR-21 reporter, rising signal | HeLa miR-21 FLuc reporter, luciferase, 48 h | Potency, µM (doses to about 38.3 µM), inactives show at the top dose reporter change, positive = more light | 340,000 tested, under 10 active | AID 2288; active = well fitted rising curve with a large enough effect; inconclusive = small, poorly fitted or top-dose-only effect; inactive = no such curve, though single readings can be large or run the other way;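 note: % of control where 0% means no effect; miR-21 action dims this reporter so a rising signal means less miR-21 action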
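Compounds were titrated across several concentrations (up to approximately 40 uM) and incubated 48 hours with HeLa miR-21-FLuc reporter cells (miR-21 target sequence downstream of FLuc, endogenous miR-21). Readout was firefly luciferase luminescence after lytic detection reagent.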
Sfp inh – Sfp phosphopantetheinyl transferase inhibition; Q9F4F7; Biochemical Sfp PPTase activity, qHTS; Potency, µM, for the others: max response, negative = inhibition, usual class: inhibitors; hit rate 3.5% among 310,000; active = well fitted inhibition curve with a large enough effect; inconclusive = small, poorly fitted or top-dose-only effect, or another doubt; inactive = no such curve, though single readings can be large or run the other way;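 also: the enzyme is Sfp with the accession as filed and its product quenches rhodamine fluorescence; potency is read from the fitted curve at half-maximal effect; 0% = enzyme reaction without inhibitor and -100% = no enzyme wells; top concentration of the series not given in the record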
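With Hepes-Na pH 7.6 buffer containing 10 mM MgCl2, Sfp (15 nM) modified BHQ-2-YbbR (12.5 uM) using rhodamine-CoA (5 uM). Two reads 30 minutes apart at 525/598 nm yielded each well's rate.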
JMJD2E inh – blocks human JMJD2E demethylase activity; JMJD2E catalytic domain, FDH-coupled NADH fluorescence (FDH is formaldehyde dehydrogenase); hit rate 1.6% among 230,000; Potency, µM (titrated, usually from 57.1 µM), without a hit: at the top dose activity change, negative = inhibition, hits mostly inhibitors; AID 2147; active = well fitted inhibition curve with a large enough effect, not every such curve was filed as active; inconclusive = small, poorly fitted or top-dose-only effect, or another doubt; inactive = no such curve, though single readings can be large or run the other way;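 also: potency is read from the fitted curve at half-maximal effect; 0% = wells with enzyme and -100% = buffer wells without enzyme; nearly all actives have a fitted effect of over 50% in size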
ALDH1A1 block – blocks purified human ALDH1A1 activity | P00352 | Potency, µM (series often up to 75.3 µM), for inactives: top-dose activity, negative = inhibition, actives largely listed as inhibitors | Purified ALDH1A1, NADH fluorescence, propionaldehyde substrate | hit rate 7.3% among 220,000; active = well fitted inhibition curve with a large enough effect, not every such curve was filed as active; inconclusive = small, poorly fitted or top-dose-only effect, or another doubt; inactive = no such curve, though single readings can be large or run the other way;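 also: potency is read from the fitted curve at half-maximal effect; plate controls were no enzyme wells and a reference inhibitor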
LMNA splice mod – LMNA splicing modulation; HeLa LMNA splicing GFP/RFP minigene ratio, 48 h; Potency, µM (highest dose often 46.1 µM), without a hit: at the top dose ratio change, negative = inhibition, most hits filed as inhibitors; hit rate 0.01% among 200,000; active = well fitted inhibition curve with a large enough effect in the signal ratio, with a control signal flat, not every such curve was filed as active; inconclusive = small, poorly fitted or top-dose-only effect, or effect the other way, or a change in a side signal; the % refers to the signal ratio; also: potency is read from the fitted curve at half-maximal effect; % is scaled to controls: 0 for no effect and ±100 for the full control effect
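Read-out is the ratio of GFP to DsRed2 object intensity, acquired by 488 nm laser-scanning cytometry on HeLa lamin A-EGFP minigene reporter cells. Compound incubation 48 hrs at 37 °C in Opti-MEM with 2% FBS; DMSO 0.5% final.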
G9a block – inhibitors of human histone lysine methyltransferase G9a; Potency, µM (highest dose often 102 µM), for the others: at the top dose activity, negative = inhibition, hits mostly inhibitors; hit rate 8.8% among 350,000; AID 504332; Q96KQ7; G9a H3K9 monomethylation, AlphaScreen, 2 h; also: potency is read from the fitted curve at half-maximal effect; % is scaled to controls: 0 for no effect and ±100 for the full control effect; nearly all actives have a fitted effect of over 75% in size
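Readings reflect AlphaScreen signal from monomethyl-H3K9 antibody detection. HMT at 20 nM; substrate b-H3K9 500 nM; cofactor SAM 20 uM; 2 h RT reaction; compounds tested as titrations in qHTS with 15 min preincubation.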
* marks the source's active call; other numbers are inactive results; u = inconclusive; x = not tested or not shown; [ ] = remark or other dose. Unless noted, calls follow the shape of the dose curve; as a rule, active = well fitted curve in the direction sought with a large enough effect; inconclusive = small, poorly fitted or top-dose-only effect, or another doubt; inactive = no such curve, though single readings can be large; an effect the other way counts as inactive or inconclusive.

Short forms: A = miR-21 reporter; B = Sfp inh; C = JMJD2E inh; D = ALDH1A1 block; E = LMNA splice mod; F = G9a block
#1 COc1ccc(CN2CCN(C(=O)CC(C)C)CC2)cc1Br
  A = 11.6%; B = -28.5%; C = x; D = x; E = x; F = 10µM*

#2 CC(C)CC(=O)N1CCN(Cc2ccc3ccccc3c2)CC1
  A = 4.7%; B = -28.1%; C = x; D = x; E = x; F = -2.6%[0.501 µM]

#3 C[n+]1ccc(/C=C/c2ccc3ccccc3c2)cc1
  A = x; B = -13.6%; C = x; D = u; E = x; F = 7.08µM*

#4 C[n+]1ccc(/C=C/c2ccc(Br)cc2)cc1
  A = 24.7%; B = -2.0%; C = u; D = u; E = u; F = u

#5 O=C(NCc1ccccn1)c1c(Cl)cccc1Cl
  A = -7.1%; B = 12.5%; C = -6.0%; D = 6.4%; E = -6.4%; F = -0.7%

#6 Cc1c(Cl)cccc1-c1ccc(CNCc2ccccn2)o1
  A = -28.9%; B = u; C = x; D = x; E = x; F = 79.4µM*

#7 Cc1ccc(-n2ncc3c(N4CCC(C)CC4)ncnc32)cc1C
  A = -20.8%; B = x; C = x; D = x; E = u; F = 23.1%[59 µM]

#8 COc1ccc(-c2nc3cnc(N4CCN(C)CC4)nc3n(-c3ccc(OC)cc3)c2=O)cc1
  A = x; B = -22.0%; C = x; D = u; E = 17.9%; F = 3.1%[0.501 µM]

#9 NC(=O)c1cc2c3ccccc3ccn2c1-c1ccccc1
  A = 14.6%; B = -23.4%; C = u; D = x; E = x; F = 35.5µM*

#10 Cc1cc(C(N)=O)c2ccccc2n1
  A = 0.2%; B = 15.3%; C = 4.7%; D = 4.3%; E = 9.4%; F = -5.7%[59 µM]

#11 COC(=O)c1cc(=O)n(Cc2cccs2)c(=NCc2cccs2)s1
  A = -2.3%; B = 13.7%; C = 8.1%; D = 0.316µM*; E = 14.5%; F = 7.1%

#12 CCOC(=O)c1ccc(N=c2sc(C(=O)OC)cc(=O)n2CCCN2CCOCC2)cc1
  A = 22.3%; B = -14.4%; C = -9.9%; D = -1.4%; E = u; F = 50.1µM*

#13 CCOC(=O)c1ccc(N=c2sc(C(=O)OC)cc(=O)n2Cc2ccco2)cc1
  A = -15.9%; B = -19.0%; C = -5.3%; D = 1.41µM*; E = u; F = 39.8µM*

#14 COC(=O)c1cc(=O)n(Cc2ccccc2)c(=NCc2ccccc2)s1
  A = 1.1%; B = 2.8%; C = u; D = 10.7%; E = -3.4%[9.22 µM]; F = -4.5%

#15 COC(=O)c1cc(=O)n(CCc2ccccc2)c(=Nc2ccc(F)cc2)s1
  A = 10.0%; B = -3.6%; C = 3.9%; D = -0.2%; E = u; F = 7.08µM*

#16 COc1cccc(NC(=O)Cn2cc(S(=O)(=O)N3CCCC3)c(S(=O)(=O)N3CCCC3)c2)c1
  A = -3.9%; B = x; C = x; D = x; E = 6.8%[46 µM]; F = -7.2%[59 µM]

#17 Cc1ccc(S(=O)(=O)N2CCN(CC(=O)Nc3ccccc3C(=O)NC3CC3)CC2)cc1
  A = x; B = x; C = x; D = x; E = x; F = 1.0%

#18 N#Cc1c(-c2ccccc2)nc(SCC(=O)N(c2ccccc2)c2ccccc2)[nH]c1=O
  A = 0.4%; B = -4.6%; C = -3.2%; D = 12.6µM*; E = -11.7%; F = u

#19 N#Cc1c(-c2ccccc2)nc(SCC(=O)Nc2nnc(C(F)(F)F)s2)[nH]c1=O
  A = -0.2%; B = 33.4%; C = -13.1%; D = -5.1%; E = -3.1%[9.22 µM]; F = 50.1µM*

#20 CCOC(=O)CCCCC(=O)c1[nH]c(=O)[nH]c1CSc1nc(-c2ccccc2)c(C#N)c(=O)[nH]1
  A = 1.9%; B = u; C = -11.8%; D = 7.94µM*; E = -0.9%; F = u

#21 COc1ccc(OC)c(NC(=O)CCCOc2cc(=O)n(C)c3ccccc23)c1
  A = -9.4%; B = x; C = x; D = x; E = x; F = -2.4%[59 µM]

#22 Cc1cccc2c1-c1sc(C(=O)NCc3ccc(Cl)cc3)cc1CO2
  A = -1.2%; B = x; C = x; D = x; E = x; F = 10.1%[59 µM]

#23 CCN(CC)S(=O)(=O)c1ccc2c(c1)nc(SCc1nc3ccsc3c(=O)[nH]1)n2CC
  A = 5.0%; B = u; C = -6.4%; D = u; E = 12.0%; F = 35.5µM*

#24 Cc1cc(C)nc(NC(=O)CSc2ccccn2)n1
  A = -2.0%; B = 18.1%; C = 2.1%; D = 10µM*; E = 0.7%; F = 3.4%[59 µM]

#25 COc1cccc(NC(=O)CSc2ccccn2)c1
  A = -45.3%; B = 7.0%; C = 1.9%; D = 20µM*; E = 7.1%; F = 5.1%[59 µM]

#26 CC(/C=N/NC(=O)CSc1ccccn1)=C\c1ccc(C(C)C)cc1
  A = -55.0%; B = -12.8%; C = -3.4%; D = 25.1µM*; E = -2.2%; F = 20.9%

#27 O=C(CSc1ccccn1)Nc1ccc(NC(=O)CSc2ccccn2)cc1
  A = 4.4%; B = 3.8%; C = 8.0%; D = -7.2%; E = 12.9%[46 µM]; F = x

#28 O=C(CSc1ccccn1)Nc1nonc1[N+](=O)[O-]
  A = u; B = 44.7µM*; C = x; D = x; E = x; F = x

#29 C/C(CC(=O)Nc1ccccn1)=N\NC(=O)c1ccccc1
  A = -47.5%; B = 15.4%; C = -15.6%; D = 9.1%; E = -12.4%; F = 15.6%[59 µM]

#30 C/C(CC(=O)Nc1ccccn1)=N\NC(=O)c1ccc2ccccc2c1
  A = -8.2%; B = -2.7%; C = 4.7%; D = 5.62µM*; E = -9.7%; F = 6.9%[59 µM]

#31 CCCNC(=O)C/C(C)=N/NC(=O)C(=O)Nc1ccccn1
  A = -11.5%; B = -5.7%; C = 21.5%; D = -7.6%; E = u; F = 50.1µM*

#32 O=C(O)c1ccc(-c2ccccc2C(F)(F)F)s1
  A = x; B = -2.8%; C = x; D = u; E = x; F = u

#33 COC(=O)c1cc(S(=O)(=O)C(C)C)c(S(C)=O)s1 (stereo not drawn)
  A = 1.9%; B = 17.5%; C = u; D = 1.2%; E = u; F = -29.7%

#34 c1ccc(C(c2nnnn2C2CCCCC2)N2CCc3ccccc3C2)nc1 (stereo not drawn)
  A = -7.0%; B = 79.4µM*; C = u; D = u; E = 0.0%; F = 7.94µM*

#35 CC(C)C(c1nnnn1C1CCCCC1)N1CCc2ccccc2C1 (stereo not drawn)
  A = 5.1%; B = -16.4%; C = -3.8%; D = 25.1µM*; E = 12.7%; F = u

#36 c1cc(N2CCCC2)ccc1C(c1nnnn1C1CCCCC1)N1CCOCC1 (stereo not drawn)
  A = -23.7%; B = u; C = u; D = 25.1µM*; E = 9.0%; F = 10µM*

#37 CC(C)C(c1nnnn1Cc1ccccc1)N1CCc2ccccc2C1 (stereo not drawn)
  A = 0.3%; B = 3.4%; C = u; D = 10µM*; E = 16.1%; F = u

#38 COc1ccc(OC)c(C(c2nnnn2C2CCCC2)N2CCN(c3ccccc3)CC2)c1 (stereo not drawn)
  A = -3.6%; B = 5.8%; C = -5.3%; D = u; E = 4.5%; F = 31.6µM*

#39 COc1ccc(C(c2nnnn2C2CCCCC2)N2CCN(c3ccc(OC)cc3)CC2)cc1 (stereo not drawn)
  A = 7.0%; B = 3.3%; C = -4.0%; D = -4.0%; E = -10.3%; F = u

#40 Oc1ccc(N2CCN(C(c3ccccn3)c3nnnn3C3CCCC3)CC2)cc1 (stereo not drawn)
  A = -11.4%; B = 17.8µM*; C = u; D = 25.1µM*; E = -20.0%; F = 1.78µM*

#41 c1ccc(Cn2nnnc2C(c2ccccn2)N2CCN(c3ccccc3)CC2)cc1 (stereo not drawn)
  A = 1.5%; B = 13.6%; C = 1.6%; D = -12.8%; E = 18.1%; F = x

#42 CCCCn1c(N)c(N(CC(C)C)C(=O)CSc2ccccc2C)c(=O)[nH]c1=O
  A = x; B = x; C = x; D = x; E = x; F = -9.8%

#43 Cc1oc2ncnc(N3CCOCC3)c2c1C(=O)N(Cc1ccccc1)C(C)C
  A = -13.0%; B = x; C = x; D = x; E = 9.7%[46 µM]; F = -6.7%[59 µM]

#44 COc1ccc(-[n+]2c(C)cc(/C=C3\Sc4ccccc4N3C)cc2C)cc1
  A = u; B = 20µM*; C = -29.9%; D = u; E = x; F = 50.1µM*

#45 Cc1ccccc1NC1(C#N)C(=O)Nc2ccccc21 (stereo not drawn)
  A = -6.4%; B = 15.9%; C = -2.1%; D = u; E = 3.4%; F = 12.6%

#46 CC(C)c1ccc(NC2(C#N)C(=O)Nc3ccccc32)cc1 (stereo not drawn)
  A = -6.1%; B = 3.5%; C = 0.9%; D = u; E = -1.0%; F = 70.8µM*

#47 CN(CC(=O)Nc1ccccc1Br)C(=O)c1cc(S(=O)(=O)N(C)C)ccc1N1CCCC1
  A = x; B = x; C = x; D = x; E = x; F = -0.3%[59 µM]

Whole records from above.
Entry for COc1ccc(-[n+]2c(C)cc(/C=C3\Sc4ccccc4N3C)cc2C)cc1 → miR-21 reporter = u; Sfp inh = 20µM*; JMJD2E inh = -29.9%; ALDH1A1 block = u; LMNA splice mod = x; G9a block = 50.1µM*
Entry for Cc1ccccc1NC1(C#N)C(=O)Nc2ccccc21 (stereo not drawn) → miR-21 reporter = -6.4%; Sfp inh = 15.9%; JMJD2E inh = -2.1%; ALDH1A1 block = u; LMNA splice mod = 3.4%; G9a block = 12.6%

Screening data: PubChem BioAssay, National Center for Advancing Translational Sciences (NCATS)
